Laboratory results: ChEMBL document CHEMBL1137222, “Architecture of P2Y nucleotide receptors: structural comparison based on sequence analysis, mutagenesis, and homology modeling” (J Med Chem, 2004)

The chains behind the UniProt entries cited, without tags or fusion partners.
UniProt P47900, whole entry K198A: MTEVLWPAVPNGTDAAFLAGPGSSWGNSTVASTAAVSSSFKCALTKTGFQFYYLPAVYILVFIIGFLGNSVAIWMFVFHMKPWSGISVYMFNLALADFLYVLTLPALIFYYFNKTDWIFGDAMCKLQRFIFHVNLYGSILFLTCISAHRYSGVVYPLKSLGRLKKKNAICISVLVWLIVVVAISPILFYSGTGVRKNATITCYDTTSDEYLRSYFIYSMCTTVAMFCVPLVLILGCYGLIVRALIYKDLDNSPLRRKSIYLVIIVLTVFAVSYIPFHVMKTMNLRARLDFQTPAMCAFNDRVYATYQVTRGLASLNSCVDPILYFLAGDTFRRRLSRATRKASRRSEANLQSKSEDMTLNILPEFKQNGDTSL
UniProt P47900, whole entry D208A: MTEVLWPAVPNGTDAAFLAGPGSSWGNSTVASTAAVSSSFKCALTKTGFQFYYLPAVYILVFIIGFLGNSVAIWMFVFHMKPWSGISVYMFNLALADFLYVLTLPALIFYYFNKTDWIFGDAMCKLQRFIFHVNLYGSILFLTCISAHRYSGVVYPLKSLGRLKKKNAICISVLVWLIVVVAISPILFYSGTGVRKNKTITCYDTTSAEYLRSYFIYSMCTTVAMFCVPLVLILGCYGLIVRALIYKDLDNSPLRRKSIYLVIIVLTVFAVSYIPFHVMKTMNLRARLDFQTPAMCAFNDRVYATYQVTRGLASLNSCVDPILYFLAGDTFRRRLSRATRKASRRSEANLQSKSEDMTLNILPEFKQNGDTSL
UniProt P47900, whole entry Y203F: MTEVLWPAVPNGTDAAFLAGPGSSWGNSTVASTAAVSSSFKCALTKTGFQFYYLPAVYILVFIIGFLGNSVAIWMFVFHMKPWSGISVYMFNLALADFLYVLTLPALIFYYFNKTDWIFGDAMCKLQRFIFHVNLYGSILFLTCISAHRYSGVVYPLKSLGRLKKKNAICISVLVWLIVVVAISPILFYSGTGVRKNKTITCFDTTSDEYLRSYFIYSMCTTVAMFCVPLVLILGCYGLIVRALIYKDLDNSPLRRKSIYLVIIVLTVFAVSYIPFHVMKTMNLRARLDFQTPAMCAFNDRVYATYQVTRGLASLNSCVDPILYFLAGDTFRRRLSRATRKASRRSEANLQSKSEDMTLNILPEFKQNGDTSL
UniProt P47900, whole entry K280A: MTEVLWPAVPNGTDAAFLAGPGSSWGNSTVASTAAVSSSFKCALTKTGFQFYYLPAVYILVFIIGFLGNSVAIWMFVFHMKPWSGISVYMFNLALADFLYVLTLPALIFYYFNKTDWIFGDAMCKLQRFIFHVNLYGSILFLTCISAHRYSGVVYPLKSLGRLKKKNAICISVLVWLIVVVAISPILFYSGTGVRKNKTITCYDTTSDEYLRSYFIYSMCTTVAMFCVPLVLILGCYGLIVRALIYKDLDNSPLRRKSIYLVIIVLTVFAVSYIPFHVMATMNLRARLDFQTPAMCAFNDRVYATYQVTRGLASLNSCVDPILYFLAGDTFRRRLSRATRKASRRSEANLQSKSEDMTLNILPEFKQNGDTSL
UniProt P47900, whole entry C124A: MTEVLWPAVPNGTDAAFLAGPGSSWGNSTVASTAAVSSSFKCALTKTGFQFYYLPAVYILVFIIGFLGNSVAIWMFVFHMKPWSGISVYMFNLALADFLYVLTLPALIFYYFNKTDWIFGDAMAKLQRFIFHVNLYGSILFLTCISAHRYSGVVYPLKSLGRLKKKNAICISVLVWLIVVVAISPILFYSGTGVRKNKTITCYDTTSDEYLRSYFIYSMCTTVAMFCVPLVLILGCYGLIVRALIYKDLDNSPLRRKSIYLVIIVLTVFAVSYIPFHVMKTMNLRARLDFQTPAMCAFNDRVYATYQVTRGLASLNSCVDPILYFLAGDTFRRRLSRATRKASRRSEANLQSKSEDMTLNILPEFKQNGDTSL
UniProt P47900, whole entry C202A: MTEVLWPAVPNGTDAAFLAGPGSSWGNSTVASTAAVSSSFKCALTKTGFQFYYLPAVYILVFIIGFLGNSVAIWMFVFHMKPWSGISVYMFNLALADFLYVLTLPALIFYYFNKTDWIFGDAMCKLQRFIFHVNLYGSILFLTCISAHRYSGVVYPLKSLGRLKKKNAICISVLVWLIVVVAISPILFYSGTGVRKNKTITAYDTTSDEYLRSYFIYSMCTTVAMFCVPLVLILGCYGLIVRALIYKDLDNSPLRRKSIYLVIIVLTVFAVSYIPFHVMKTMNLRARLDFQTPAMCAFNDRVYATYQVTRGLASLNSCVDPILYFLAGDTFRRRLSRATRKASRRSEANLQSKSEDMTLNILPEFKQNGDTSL
UniProt P47900, whole entry D204N: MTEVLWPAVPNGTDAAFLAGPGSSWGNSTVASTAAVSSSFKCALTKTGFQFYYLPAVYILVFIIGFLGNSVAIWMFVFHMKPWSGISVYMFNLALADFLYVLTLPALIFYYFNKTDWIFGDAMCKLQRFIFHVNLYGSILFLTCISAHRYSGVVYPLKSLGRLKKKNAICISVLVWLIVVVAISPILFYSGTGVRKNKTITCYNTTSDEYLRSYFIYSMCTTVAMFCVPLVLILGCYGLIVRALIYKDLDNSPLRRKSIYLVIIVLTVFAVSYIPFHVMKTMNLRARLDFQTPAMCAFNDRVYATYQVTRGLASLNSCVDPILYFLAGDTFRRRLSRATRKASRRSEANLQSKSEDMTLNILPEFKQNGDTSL
UniProt P47900, whole entry E209Q: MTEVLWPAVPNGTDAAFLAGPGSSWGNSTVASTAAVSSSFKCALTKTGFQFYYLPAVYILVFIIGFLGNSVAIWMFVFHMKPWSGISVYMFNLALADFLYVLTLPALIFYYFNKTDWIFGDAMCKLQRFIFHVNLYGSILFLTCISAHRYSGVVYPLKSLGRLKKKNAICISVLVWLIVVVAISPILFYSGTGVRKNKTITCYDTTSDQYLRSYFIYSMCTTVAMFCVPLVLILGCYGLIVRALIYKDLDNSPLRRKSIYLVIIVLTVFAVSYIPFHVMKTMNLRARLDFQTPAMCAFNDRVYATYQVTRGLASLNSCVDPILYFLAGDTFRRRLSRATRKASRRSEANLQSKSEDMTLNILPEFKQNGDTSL
UniProt P47900, whole entry Y203A: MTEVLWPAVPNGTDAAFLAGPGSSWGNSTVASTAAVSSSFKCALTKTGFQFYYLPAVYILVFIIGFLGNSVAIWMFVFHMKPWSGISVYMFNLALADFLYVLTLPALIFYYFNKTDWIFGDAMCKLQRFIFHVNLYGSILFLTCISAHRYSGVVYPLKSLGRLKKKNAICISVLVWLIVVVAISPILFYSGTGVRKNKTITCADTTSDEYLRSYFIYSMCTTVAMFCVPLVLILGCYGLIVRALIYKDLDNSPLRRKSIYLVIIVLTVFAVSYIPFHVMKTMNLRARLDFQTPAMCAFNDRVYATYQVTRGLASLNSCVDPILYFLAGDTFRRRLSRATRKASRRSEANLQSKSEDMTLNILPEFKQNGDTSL
UniProt P47900, whole entry Y136A: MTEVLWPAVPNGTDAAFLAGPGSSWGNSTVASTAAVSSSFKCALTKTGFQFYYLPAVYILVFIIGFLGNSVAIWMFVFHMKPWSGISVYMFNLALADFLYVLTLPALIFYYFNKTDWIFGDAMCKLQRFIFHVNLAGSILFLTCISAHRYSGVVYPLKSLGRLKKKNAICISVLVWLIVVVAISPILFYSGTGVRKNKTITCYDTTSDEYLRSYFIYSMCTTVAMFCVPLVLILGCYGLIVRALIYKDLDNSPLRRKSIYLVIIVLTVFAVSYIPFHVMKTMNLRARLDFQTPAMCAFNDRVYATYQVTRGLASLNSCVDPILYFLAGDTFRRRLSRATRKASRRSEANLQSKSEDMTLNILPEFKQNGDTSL
UniProt P47900, whole entry S314A: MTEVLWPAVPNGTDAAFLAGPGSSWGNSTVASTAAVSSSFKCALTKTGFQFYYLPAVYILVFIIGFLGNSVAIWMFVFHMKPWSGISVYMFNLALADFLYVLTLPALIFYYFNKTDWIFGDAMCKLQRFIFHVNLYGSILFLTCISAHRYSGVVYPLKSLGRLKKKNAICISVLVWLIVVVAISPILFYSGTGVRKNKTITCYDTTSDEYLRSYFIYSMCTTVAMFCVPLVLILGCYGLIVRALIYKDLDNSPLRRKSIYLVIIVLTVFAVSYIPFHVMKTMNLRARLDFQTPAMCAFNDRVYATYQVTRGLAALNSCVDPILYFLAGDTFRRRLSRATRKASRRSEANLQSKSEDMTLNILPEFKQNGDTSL
UniProt P47900, whole entry R310A: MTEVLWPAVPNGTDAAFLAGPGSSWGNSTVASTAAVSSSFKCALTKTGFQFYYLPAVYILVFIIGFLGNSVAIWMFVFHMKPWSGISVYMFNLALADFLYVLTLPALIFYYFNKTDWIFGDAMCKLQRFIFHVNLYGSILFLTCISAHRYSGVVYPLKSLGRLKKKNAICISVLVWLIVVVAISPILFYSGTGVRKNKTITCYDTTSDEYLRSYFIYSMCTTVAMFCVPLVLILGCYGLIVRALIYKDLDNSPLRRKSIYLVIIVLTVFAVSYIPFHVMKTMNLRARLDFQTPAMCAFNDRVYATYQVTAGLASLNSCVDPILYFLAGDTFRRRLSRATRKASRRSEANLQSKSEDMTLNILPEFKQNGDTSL
UniProt P47900, whole entry Y273F: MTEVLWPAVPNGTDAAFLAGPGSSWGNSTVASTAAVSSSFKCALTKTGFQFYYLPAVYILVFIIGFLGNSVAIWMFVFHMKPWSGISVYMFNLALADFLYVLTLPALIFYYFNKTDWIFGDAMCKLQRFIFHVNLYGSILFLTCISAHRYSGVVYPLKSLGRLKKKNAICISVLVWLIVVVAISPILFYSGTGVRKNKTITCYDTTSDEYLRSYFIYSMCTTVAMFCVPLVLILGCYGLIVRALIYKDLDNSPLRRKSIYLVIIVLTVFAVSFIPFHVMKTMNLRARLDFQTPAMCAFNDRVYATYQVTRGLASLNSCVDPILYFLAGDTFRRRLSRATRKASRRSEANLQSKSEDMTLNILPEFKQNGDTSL
UniProt P47900, whole entry E209R: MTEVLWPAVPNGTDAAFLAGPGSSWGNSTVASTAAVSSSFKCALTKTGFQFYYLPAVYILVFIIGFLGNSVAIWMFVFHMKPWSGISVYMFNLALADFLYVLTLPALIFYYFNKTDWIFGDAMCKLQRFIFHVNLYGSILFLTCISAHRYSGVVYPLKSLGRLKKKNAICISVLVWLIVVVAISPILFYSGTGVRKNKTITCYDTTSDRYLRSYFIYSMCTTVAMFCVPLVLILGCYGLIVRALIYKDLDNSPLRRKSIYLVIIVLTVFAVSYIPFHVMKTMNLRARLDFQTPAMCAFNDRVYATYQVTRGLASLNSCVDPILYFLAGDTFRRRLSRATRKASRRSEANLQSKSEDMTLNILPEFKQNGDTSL
UniProt P47900, whole entry K196A: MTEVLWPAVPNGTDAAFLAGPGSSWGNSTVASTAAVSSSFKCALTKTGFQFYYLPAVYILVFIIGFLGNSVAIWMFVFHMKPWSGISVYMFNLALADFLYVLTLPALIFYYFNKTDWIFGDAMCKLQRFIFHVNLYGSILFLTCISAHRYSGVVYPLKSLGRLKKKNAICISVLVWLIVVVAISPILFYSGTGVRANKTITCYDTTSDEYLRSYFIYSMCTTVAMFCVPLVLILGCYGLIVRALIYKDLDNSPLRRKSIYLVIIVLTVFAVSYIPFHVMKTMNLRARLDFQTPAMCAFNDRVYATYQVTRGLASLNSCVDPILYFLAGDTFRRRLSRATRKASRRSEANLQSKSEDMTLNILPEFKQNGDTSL
UniProt P47900, whole entry F131A: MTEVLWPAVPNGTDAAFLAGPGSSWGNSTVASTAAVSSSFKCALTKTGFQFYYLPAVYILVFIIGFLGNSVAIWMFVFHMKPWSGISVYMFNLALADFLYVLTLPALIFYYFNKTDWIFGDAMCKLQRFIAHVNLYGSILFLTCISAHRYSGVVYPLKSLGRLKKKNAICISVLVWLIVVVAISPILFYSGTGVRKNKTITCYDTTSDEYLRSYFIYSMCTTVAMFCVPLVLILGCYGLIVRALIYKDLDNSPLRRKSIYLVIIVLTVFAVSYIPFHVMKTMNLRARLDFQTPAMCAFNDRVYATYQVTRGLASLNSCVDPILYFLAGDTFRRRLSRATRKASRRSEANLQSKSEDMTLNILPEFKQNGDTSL
UniProt P47900, whole entry Q307A: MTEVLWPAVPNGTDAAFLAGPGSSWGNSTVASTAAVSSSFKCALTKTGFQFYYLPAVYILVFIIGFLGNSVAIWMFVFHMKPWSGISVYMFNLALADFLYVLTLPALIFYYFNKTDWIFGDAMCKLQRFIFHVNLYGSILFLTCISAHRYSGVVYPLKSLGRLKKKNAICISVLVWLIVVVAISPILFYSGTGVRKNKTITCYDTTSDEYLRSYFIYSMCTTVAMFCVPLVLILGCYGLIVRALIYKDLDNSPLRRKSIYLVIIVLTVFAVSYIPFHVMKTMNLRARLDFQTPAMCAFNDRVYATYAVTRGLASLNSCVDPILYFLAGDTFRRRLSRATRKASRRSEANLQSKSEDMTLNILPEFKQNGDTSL

Key:
Assay type in all cases: cell-based
P2Y purinoceptor 1 [1] = target: P2Y purinoceptor 1 (Homo sapiens, UniProt P47900, K198A); test: Effective concentration required for the activation of human K198A mutant strain P2Y1 receptors expressed in COS-7 cells for the accumulation of inositol phosphate
P2Y purinoceptor 1 [2] = target: P2Y purinoceptor 1 (Homo sapiens, UniProt P47900, D208A); test: Effective concentration required for the activation of human D208A mutant strain P2Y1 receptors expressed in COS-7 cells for the accumulation of inositol phosphate
P2Y purinoceptor 1 [3] = target: T1, P2Y purinoceptor 1 (Homo sapiens, UniProt P47900, Y203F); test: Effective concentration to activate human Y203F mutant strain P2Y1 receptor expressed in COS-7 cells for the accumulation of inositol phosphate
P2Y purinoceptor 1 [4] = target: P2Y purinoceptor 1 (Homo sapiens, UniProt P47900, K280A); test: Effective concentration required for the activation of human K280A mutant strain P2Y1 receptors expressed in COS-7 cells for the accumulation of inositol phosphate
P2Y purinoceptor 1 [5] = target: P2Y purinoceptor 1 (Homo sapiens, UniProt P47900, C124A); test: Effective concentration required for the activation of human C124A mutant strain P2Y1 receptors expressed in COS-7 cells for the accumulation of inositol phosphate
P2Y purinoceptor 1 [6] = target: P2Y purinoceptor 1 (Homo sapiens, UniProt P47900, C202A); test: Effective concentration required for the activation of human C202A mutant strain P2Y1 receptors expressed in COS-7 cells for the accumulation of inositol phosphate
P2Y purinoceptor 1 [7] = target: P2Y purinoceptor 1 (Homo sapiens, UniProt P47900, D204N); test: Effective concentration required for the activation of human D204N mutant strain P2Y1 receptors expressed in COS-7 cells for the accumulation of inositol phosphate
P2Y purinoceptor 1 [8] = target: P2Y purinoceptor 1 (Homo sapiens, UniProt P47900, E209Q); test: Effective concentration required for the activation of human E209Q mutant strain P2Y1 receptors expressed in COS-7 cells for the accumulation of inositol phosphate
P2Y purinoceptor 1 [9] = target: P2Y purinoceptor 1 (Homo sapiens, UniProt P47900, Y203A); test: Inhibition concentration required against human Y203A (EL2) mutant strain P2Y1 receptor expressed in COS-7 cells is determined using [3H]MRS2279 as radioligand
P2Y purinoceptor 1 [10] = target: P2Y purinoceptor 1 (Homo sapiens, UniProt P47900, Y136A); test: Effective concentration required for the activation of human Y136A mutant strain P2Y1 receptors expressed in COS-7 cells for the accumulation of inositol phosphate
P2Y purinoceptor 1 [11] = target: P2Y purinoceptor 1 (Homo sapiens, UniProt P47900, S314A); test: Effective concentration required for the activation of human S314A mutant strain P2Y1 receptors expressed in COS-7 cells for the accumulation of inositol phosphate
P2Y purinoceptor 1 [12] = target: P2Y purinoceptor 1 (Homo sapiens, UniProt P47900, R310A); test: Effective concentration required for the activation of human R310A mutant strain P2Y1 receptors expressed in COS-7 cells for the accumulation of inositol phosphate
P2Y purinoceptor 1 [13] = target: T2, P2Y purinoceptor 1 (Homo sapiens, UniProt P47900, Y273F); test: Effective concentration to activate human Y273F mutant strain P2Y1 receptor expressed in COS-7 cells for the accumulation of inositol phosphate
P2Y purinoceptor 1 [14] = target: P2Y purinoceptor 1 (Homo sapiens, UniProt P47900, E209R); test: Effective concentration required for the activation of human E209R mutant strain P2Y1 receptors expressed in COS-7 cells for the accumulation of inositol phosphate
P2Y purinoceptor 1 [15] = target: P2Y purinoceptor 1 (Homo sapiens, UniProt P47900, K196A); test: Effective concentration required for the activation of human K196A mutant strain P2Y1 receptors expressed in COS-7 cells for the accumulation of inositol phosphate
P2Y purinoceptor 1 [16] = target: P2Y purinoceptor 1 (Homo sapiens, UniProt P47900, F131A); test: Effective concentration required for the activation of human F131A mutant strain P2Y1 receptors expressed in COS-7 cells for the accumulation of inositol phosphate
P2Y purinoceptor 1 [17] = target: P2Y purinoceptor 1 (Homo sapiens, UniProt P47900, Q307A); test: Effective concentration required for the activation of human Q307A mutant strain P2Y1 receptors expressed in COS-7 cells for the accumulation of inositol phosphate
P2Y purinoceptor 1 [18] = target: P2Y purinoceptor 1 (Homo sapiens, UniProt P47900); test: Effective concentration to activate wild-type P2Y1 receptor expressed in COS-7 cells for the accumulation of inositol phosphate
P2Y purinoceptor 1 [19] = target: P2Y purinoceptor 1 (Homo sapiens, UniProt P47900, R287K); test: Effective concentration required for the activation of human R287K mutant strain P2Y1 receptors expressed in COS-7 cells for the accumulation of inositol phosphate
P2Y purinoceptor 1 [20] = target: T2, P2Y purinoceptor 1; test: Inhibition concentration required against human Y273F mutant strain P2Y1 receptor expressed in COS-7 cells is determined using [3H]MRS2279 as radioligand
P2Y purinoceptor 1 [21] = target: T1, P2Y purinoceptor 1; test: Inhibition concentration required against human Y203F mutant strain P2Y1 receptor expressed in COS-7 cells is determined using [3H]MRS2279 as radioligand
P2Y purinoceptor 1 [22] = target: P2Y purinoceptor 1 (Homo sapiens, UniProt P47900, Y306A); test: Effective concentration to activate human Y306A mutant strain P2Y1 receptor expressed in COS-7 cells for the accumulation of inositol phosphate
P2Y purinoceptor 1 [23] = target: P2Y purinoceptor 1 (Homo sapiens, UniProt P47900, T221A); test: Effective concentration required for the activation of human T221A mutant strain P2Y1 receptors expressed in COS-7 cells for the accumulation of inositol phosphate
P2Y purinoceptor 1 [24] = target: P2Y purinoceptor 1 (Homo sapiens, UniProt P47900, E209A); test: Effective concentration required for the activation of human E209A mutant strain P2Y1 receptors expressed in COS-7 cells for the accumulation of inositol phosphate
P2Y purinoceptor 1 [25] = target: P2Y purinoceptor 1 (Homo sapiens, UniProt P47900, R301A); test: Effective concentration required for the activation of human R301A mutant strain P2Y1 receptors expressed in COS-7 cells for the accumulation of inositol phosphate
P2Y purinoceptor 1 [26] = target: P2Y purinoceptor 1 (Homo sapiens, UniProt P47900, D300A); test: Effective concentration required for the activation of human D300A mutant strain P2Y1 receptors expressed in COS-7 cells for the accumulation of inositol phosphate
P2Y purinoceptor 1 [27] = target: P2Y purinoceptor 1 (Homo sapiens, UniProt P47900, F226A); test: Effective concentration required for the activation of human F226A mutant strain P2Y1 receptors expressed in COS-7 cells for the accumulation of inositol phosphate
P2Y purinoceptor 1 [28] = target: P2Y purinoceptor 1 (Homo sapiens, UniProt P47900, Y306F); test: Inhibition concentration required against human Y306F mutant strain P2Y1 receptor expressed in COS-7 cells is determined using [3H]MRS2279 as radioligand

CSc1nc(N)c2ncn([C@@H]3O[C@H](COP(=O)(O)OP(=O)(O)O)[C@@H](O)[C@H]3O)c2n1
pEC50 (P2Y purinoceptor 1 [1]): 7.76 | pEC50 (P2Y purinoceptor 1 [2]): 8.44 | pEC50 (P2Y purinoceptor 1 [3]): 7.80 | pEC50 (P2Y purinoceptor 1 [4]): 5.75 | pEC50 (P2Y purinoceptor 1 [5]): < 4.00 | pEC50 (P2Y purinoceptor 1 [6]): < 4.00 | pEC50 (P2Y purinoceptor 1 [7]): 6.23 | pEC50 (P2Y purinoceptor 1 [8]): 8.07 | pIC50 (P2Y purinoceptor 1 [9]): < 5.00 | pEC50 (P2Y purinoceptor 1 [10]): 7.90 | pEC50 (P2Y purinoceptor 1 [11]): < 4.00 | pEC50 (P2Y purinoceptor 1 [12]): < 4.00 | pEC50 (P2Y purinoceptor 1 [13]): 8.22 | pEC50 (P2Y purinoceptor 1 [14]): 8.31 | pEC50 (P2Y purinoceptor 1 [15]): 8.60 | pEC50 (P2Y purinoceptor 1 [16]): 7.74 | pEC50 (P2Y purinoceptor 1 [17]): 6.34 | pEC50 (P2Y purinoceptor 1 [18]): 8.52 | pEC50 (P2Y purinoceptor 1 [19]): 7.13 | pIC50 (P2Y purinoceptor 1 [20]): 7.40 | pIC50 (P2Y purinoceptor 1 [21]): 6.59 | pEC50 (P2Y purinoceptor 1 [22]): 7.82 | pEC50 (P2Y purinoceptor 1 [23]): 7.80 | pEC50 (P2Y purinoceptor 1 [24]): 4.76 | pEC50 (P2Y purinoceptor 1 [25]): 8.59 | pEC50 (P2Y purinoceptor 1 [26]): 8.01 | pEC50 (P2Y purinoceptor 1 [27]): 7.68 | pIC50 (P2Y purinoceptor 1 [28]): 6.44

pEC50, pIC50: −log10 of the molar value.
